Data taken from patent US20260274913A1 (Amgen, published 2026).
Numbering of substitutions follows the chain as printed.

Amino acid sequences for entries named in this document (tags omitted). Residues count along the entry.
UniProt Q9NP99, 21-234 limits assumed: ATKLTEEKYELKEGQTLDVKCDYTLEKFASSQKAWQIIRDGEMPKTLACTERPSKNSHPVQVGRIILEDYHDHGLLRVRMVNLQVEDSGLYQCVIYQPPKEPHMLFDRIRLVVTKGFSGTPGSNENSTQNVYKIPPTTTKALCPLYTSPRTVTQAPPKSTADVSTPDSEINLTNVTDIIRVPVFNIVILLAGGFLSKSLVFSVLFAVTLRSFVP
UniProt Q9NP99, 21-205: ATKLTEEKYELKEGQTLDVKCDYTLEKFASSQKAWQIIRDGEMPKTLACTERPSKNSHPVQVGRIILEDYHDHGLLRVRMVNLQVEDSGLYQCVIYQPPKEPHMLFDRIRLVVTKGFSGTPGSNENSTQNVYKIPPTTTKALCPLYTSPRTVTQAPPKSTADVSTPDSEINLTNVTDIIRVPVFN

B1: 57C10 Fab (Fab, V domains shown)
VH: QVQLVQSGAEVKKPGASVKVSCKASGYTFTRYDINWVRQATGQGLEWMGWLNPNSGNTGQTQKFRGRVTMTRNTSINTAYMELSSLRSEDTAVYYCARGGYTSAWRWYFDLWGRGTLVTVSS
VL: DIQMTQSPSSLSASVGDRVTITCQASQDINNHLNWYQQKPGKAPKLLIYDVSNLETGVPSSFSGSGCGTDFTFTISSLQPEDIATYFCQQYDKLPLTFGGGTKVEIE
B2: 30H2 Fab (Fab, V domains shown)
VH: EVQVLESGGGLVQPGESLRLSCTASGFTFNAYAMSWVRQAPGKGLEWVSTISGSGSTTYYADSVKGRFTISRDNSKNTLDLQMNSLRAADTAVYYCAKVAGSNFFFDHWGQGTLVTVSS
VL: EIVMTQSPATLSVSPGERATLSCRASQSINSNLAWYQQKPGQAPRLLIYGAYTRATGIPDRFSGSGSGTEFTLTISSLQSEDFAVYYCQEFIMWPPWTFGLGTQVEIK
B3: 61B12 Fab (Fab, V domains shown)
VH: QVQLVQSGAEVTKPGASVKVSCKASGYTFTRYDINWVRQATGQGLEWMGWMNPNSGNSGSVQKFRGRVTMTRNTSITTVYMELSSLRSDDTAVYYCARGGISSSWHWAFDIWGQGTMVTVSS
VL: B1 VL with D50G, V51A, S52Y, N53T, S61R, C67S, F87Y, E107K
B4: 61G5 Fab (Fab, V domains shown)
VH: QVQLVQSGAEVKKPGASVKVSCKASGYTFTSYDINWVRQATGQGLEWMGWMNPNSGNSGSVKKFRDRVTMTRNTSISTAYMELSSLRSEDTAVYYCVRLIGYSSAWKWSFQHWGQGTLVTVSS
VL: DIQMTQSPSSLSASVGDRVTITCQASRDISKYLNWYQQKPGKAPKLQIYDASNLETGVPSRFSGSGSGTDFTFTISSLQPEDIATYYCQHYDNIPITFGQGTRLEIK
B5: 63F8 Fab (Fab, V domains shown)
VH: QVQLVQSGAEVKKPGASVKVSCKASGYTFTSYDINWVRQATGQGLEWMGRMNPKSGNAGYVQNFRGRVTMTRNTSISTAYMELSSLRSEDTAVYYCARGGRTSIWSFVFDYWGQGTLVTVSS
VL: B1 VL with N30S, N31K, V51T, S61R, C67S, F87N, E107K
B6: 64D7 Fab (Fab, V domains shown)
VH: QVQLVQSGAEVKKPGASVKVSCKASGYTFTSYDINWVRQATGQGLEWMGWMNPNRGNTGYVKKFQGRVTMTRNTSISTAYMELSSLRSEDTAVYYCARRRAVYRSSWEWYFDLWGRGTLVTVSS
VL: DTQMTQSPSSLSASEGDRVTITCQASQDIFNDLNWYQEKPGKAPKLLIYHASNLETGVPSRFSGSGSGTDYTFTISSLQPEDIATYYCQQYGNLPLTFGGGTKVEIK
B7: 34D1 Fab (Fab, V domains shown)
VH: B1 VH with L51M, T58S, Q60S, T61V, N77H, T78I, A104S
VL: B4 VL with T20N, R27Q, S30R, Y32H, K45N, Q47L, S52A, D70A, D92A, I94L
B8: 44A5 Fab (Fab, V domains shown)
VH: EVQLLESGGGLVQPGGSLRLSCAASGFTFSTYAMNWVRQAPGKGLEWVSTVSGSGRPTYYADSVKGRFTISRDNSKNTLYLQMNSLRAEDTAVYYCAKAYYSNYLFDYWGQGTLVTVSS
VL: EIVMTQSPAILSVSPGERATLSCRASQSVSSNLAWYQQKPGQAPRLLIYGASTRATGVPARFSGGGSGTDFTLTISSLQSEDFAVYYCQHCKTWPPLTFGGGTKVDLK
B9: 46H7 Fab (Fab, V domains shown)
VH: EVQLLESGGGMVQPGGSLRLSCAVSGFTFSRYAMSWVRQAPGKGLEWVSEMRGSSGSTYYADSVKGRFTISRDNSKNTLYLQMNSLRVEDTAIYYCAKEFSSNSLFDYWGQGTLVTVSS
VL: B2 VL with I29V, Q42R, Y52S, D60A, E90Q, I92Y, M93N, L101Q, Q104K
B10: 49A2 Fab (Fab, V domains shown)
VH: EVQLVESGGGLVQPGGSLRLSCAASGFTFSSNWMSWVRQAPGKGLDWMASMKQDGSEIYYVDSVKGRFTISRDNAKNSLHLQMNSLRAEDTAVYYCVRGGWRFESWGQGALVTVSS
VL: EIVMTQSPATLSVSPGERATLSCRASQSVSSNLAWYQQKSGQAPRLLIYGASIRATGIPARVSGSGSGTEFTFTISSLQSEDFAVYYCQQYKNWPLTLGGGTKVEIK
B11: 66B8 Fab (Fab, V domains shown)
VH: QVQLVQSGAEVKKPGASVKVSCKASGYTFTGYYMHWVRQAPGQGLEWMGWFKPNSGVTNYAQKFQGRVTMSRDTSISTAYMELSSLRSDDTAVYYCARAGYSTSWKDWFDPWGQGTLVTVSS
VL: DIQMTQFPSSVSASVGDRVTITCRASQGISRWLAWYQQKQGKAPKLLIYMVSSLQSGVPSRFSGSGSGTDFTLTISSLQPEDFATYYCQQSHNFPITFGQGTRLDIK
B12: 50A12 Fab (Fab, V domains shown)
VH: EVQLVESGGGLVQPGGSLRLSCAASGFTFSSYWMSWVRQAPGKGLEWVANIKQDGSEEYYVDSVKGRFTISRDNAKNSLFLQMNSLRAEDTAVYYCARDYGDSFDYWGQGTLVTVSS
VL: DIQMTQSPSSVSASVGDRVTITCRASQGIRKWLAWYQQKPGRAPKLLIYAASRLQSGVPSRFSGSGSGTDFTLTISSLRPEDFATYYCLQAHGFPWTFGQGTKVEIK
B13: 3E12 (antibody, V domains shown)
VH: QVQLVQSGAEVKKPGASVKVSCKASGYTFNGYYIHWVRQAPGQGLEWMGWLNPNSGGANYAQKFQGWVTMTRDTSISTAYMELSRLTSDDTAVYYCARDQRKTTVTPFEYWGQGTLVTVSS
VL: SYELTQPPSVSVSPGQTASITCSGDKLGERNVCWYQLKPGQSPILVIYQDNKRPSGIPERFSGSKSGNTAILTISGTQAMDEADYYCQAWDRNVVFGGGTKLTVL

Biological target: T1, human TREM-1 (human, UniProt Q9NP99 21-234)
Assay: cell-based or functional assay

Fab IC50-pSYK Assay (Trial 1), PGLYRP1/PGN-induced SYK phosphorylation [pM] | Fab IC50-pSYK Assay (Trial 2), PGLYRP1/PGN-induced SYK phosphorylation [pM] | Binder
273 | 583 | B1
467 | 374 | B2
112 | 569 | B3
387 | 186 | B4
45.2 | 38 | B5
229 | 70 | B6
314 | 309 | B7
189 | 325 | B8
43.3 | 117 | B9
1180 | 787 | B10
4660 |  | B11
2850 |  | B12

Biological target: T1, human TREM-1
Assay: flow cytometry competition, competitor PGLYRP1-His/PGN on HEK293 cells with human TREM1/DAP12, antibody 2.5 ug/mL

Receptor-ligand % inhibition [%] | Binder
101 | B13

Biological target: T2, recombinant soluble human TREM-1-His protein (human, UniProt Q9NP99 21-205, biotinylated in the bead assays of Tables 6 and 7 (sites not given))
T2 construct: also called b-huTREM-1-His; biotinylated human TREM-1-His antigen; not shown: His tag
Assay: BLI (Octet HTX), antibody captured on anti-human Fc sensor, soluble human TREM-1-His as analyte, 1:1 model
Method: Briefly, TREM-1 hybridoma supernatants normalized to 10 μg/mL in DMEM null media were prepared by diluting 1:10 in OCTET® assay buffer (10 mM Tris, 0.1% Triton X-100, 150 mM NaCl, 1 mM CaCl₂), 0.1 mg/mL BSA, at pH 7.6) to a final test concentration of 1 μg/mL. Amine reactive second-generation AR2G Biosensors (Molecular Devices) were pre-incubated in 200 μL nanopore water for a minimum of 10 minutes at room temperature before use. The AR2G Biosensors were then activated for 5 minutes in a solution of 20 mM EDC (1-Ethyl-3-[3-dimethylaminopropyl]carbodiimide hydrochloride) (ForteBio) pre-mixed with 10 mM NHS (N-hydroxysulfosuccinimide) (ForteBio) in nanopore water. An in-house generated mouse anti-human Fc monoclonal antibody was coupled to the AR2G Biosensors at 10 μg/mL in 10 mM sodium acetate buffer at pH 5 for 5 minutes, quenched with 1M ethanolamine at pH 8.5 for 5 minutes, and then used to capture antibody from solution. The TREM-1 test antibodies were loaded onto the Biosensors for 5 minutes, and baseline measurements were taken for 1 minute. […] The association of recombinant human TREM-1 with the antibody-loaded sensor was measured for 5 minutes, followed by dissociation in OCTET® buffer for 10 minutes. Biosensors were then regenerated with 10 mM glycine at pH 1.7, reloaded with the same TREM-1 antibodies on the same sensors for 5 minutes, and the same method was used to measure association and dissociation of cyno TREM-1-His protein. Data was referenced using a 0 nM analyte reference sensor. Kinetic analysis was performed using a 1:1 Langmuir model with mass transfer in Genedata Screener software.

Kd [nM] | Binder
0.57 | B13
